Read-outs that look alike come from different tables or passages of the source.
Key:
[1] = target: μ-Opioid (Homo sapiens, UniProt P35372); experiment: GTPgammaS assay, μ-Opioid; conditions: for EC50: read-out: μ-Opioid EC50
[2] = target: T1, d-Opioid (Homo sapiens, UniProt P41143); experiment: d-Opioid receptor radio-binding assay; conditions: read-out: d-Opioid Ki
[3] = target: ORL1 receptor (Homo sapiens, UniProt P41146); experiment: ORL1 receptor binding (3H-nociceptin/orphanin FQ, CHO-ORL1 membranes)
[4] = target: human μ-opiate receptor (Homo sapiens, UniProt P35372); experiment: μ-opioid receptor binding ([3H]-naloxone, CHO-K1 membranes)
[5] = target: T2, k-Opioid (Homo sapiens, UniProt P41145); experiment: GTPgammaS assay, k-Opioid; conditions: for EC50: read-out: k-Opioid EC50
[6] = target: T2, k-Opioid; experiment: k-Opioid receptor radio-binding assay; conditions: read-out: k-Opioid Ki
[7] = target: T1, d-Opioid; experiment: GTPgammaS assay, d-Opioid; conditions: for EC50: read-out: d-Opioid EC50
[8] = system: rat; experiment: Chung model: mononeuropathic pain after spinal nerve ligation; conditions: test dose 100 μg/kg i.v.
[9] = system: mouse; experiment: STZ, mouse: diabetic polyneuropathy; conditions: 100 μg/kg i.p.
[10] = read-out: Ki (ORL1), binding affinity
[11] = read-out: ORL1 Ki, radio-binding assay (Table 6)
[12] = read-out: Ki (μ), binding affinity
[13] = read-out: μ-Opioid Ki, radio-binding assay (Table 6)

## COc1ccc(CC(=O)N2CCc3c4ccccc4[nH]c3[C@]23CC[C@@](c2cccc(F)c2)(N(C)C)CC3)cc1OC
[1]
  μ-Opioid relative efficacy: 88%
  EC50: 3 nM
[2]
  Ki: 1 nM
[3]; [10]
  Ki: 1 nM
[3]; [11]
  Ki: 1 nM
[4]; [12]
  Ki: 1 nM
[4]; [13]
  Ki: 1 nM
[5]
  k-Opioid relative efficacy: 64%
  EC50: 29 nM
[6]
  Ki: 4 nM
[7]
  d-Opioid relative efficacy: 82%
  EC50: 5 nM

## COc1ccc(CC(=O)N2CCc3c4ccccc4[nH]c3[C@]23CC[C@](c2cccc(F)c2)(N(C)C)CC3)cc1OC
[1]
  μ-Opioid relative efficacy: 94%
  EC50: 49 nM
[2]
  Ki: 791 nM
[3]; 1/[Ki(ORL1)/Ki(μ)]
  ratio of ORL1 receptor affinity to μ-opioid receptor affinity: about 6
[3]; [10]
  Ki: 70 nM
[3]; [11]
  Ki: 70 nM
[4]; [12]
  Ki: 450 nM
[4]; [13]
  Ki: 450 nM
[5]
  k-Opioid relative efficacy: 85%
  EC50: 1170 nM
[8]
  Chung, rat: antinociceptive action in healthy tissue: no
[6]
  Ki: 542 nM
[7]
  d-Opioid relative efficacy: 106%
  EC50: 2680 nM
[9]
  STZ, mouse: antinociceptive action in non-neuropathic control animals: no antinociceptive action in

— patent publication US20160159787A1, “Cis-tetrahydro-spiro(cyclohexane-1, 1' -pyrido[3,4-b]indole)-4-amine Compounds” (published 2016)
